Measurements taken from patent publication US4329353A (priority 1981, dated 1982).

These compounds were tested on norepinephrine-induced mortality (assay: norepinephrine (NOR) test in rats (combined APO-TRY-NOR test)). Conditions: Table 3; rat; s.c. per method; norepinephrine 1.25 mg/kg i.v. 120 min after compound.
Method: I. The combined apomorphine (APO)-, tryptamine (TRY)- and norepinephrine (NOR) test in rats.
The experimental animals used in this test were adult male Wistar rats (weight 240±10 g). After an overnight fast, the animals were treated subcutaneously (1 ml/100 g) with an aqueous solution of the compound under investigation (time=zero) and put in isolated observation cages. Thirty minutes thereafter (time=30 minutes) 1.25 mg/kg of apomorphine hydrochloride (APO) was injected intravenously and the rats were observed over a 1 hour period for the presence or absence of the following apomorphine-induced phenomena: agitation and stereotypic chewing. At the end of this 1 hour period (time=90 minutes) the same animals were injected intravenously with 40 mg/kg of tryptamine (TRY) and the presence of the typical tryptamine-induced bilateral tonic seizures was noted. Two hours after pretreatment (time=120 minutes) finally, the same animals were challenged with 1.25 mg/kg intravenously of norephinephrine (NOR) and possible mortality was looked for up to 60 minutes later.
The tables 1, 2 and 3 give the ED50 -values of a number of the compounds under consideration. As used herein, the ED50 -value represents the dose which protects 50% of the animals from apomorphine-, tryptamine- or norepinephrine-induced phenomena.

First: CCOC(=O)C1(c2ccc(F)cc2)CCC(N2CCC(n3c(=O)[nH]c4ccccc43)CC2)CC1 (stereo not shown)
Second: CN(C)C(=O)C1(c2ccc(F)cc2)CCC(N2CCC(n3c(=O)[nH]c4ccccc43)CC2)CC1 (stereo not shown)
The “ED50 -(NOR)” value of the first is 2-fold higher: 2.5 mg/kg for the first, 1.25 mg/kg for the second.

Going from COc1ccc(C2(C(=O)N(C)C)CCC(N3CCC(n4c(=O)[nH]c5ccccc54)CC3)CC2)cc1 (stereo not shown) to CCOC(=O)C1(c2ccccc2)CCC(N2CCC(n3c(=O)[nH]c4ccccc43)CC2)CC1 (stereo not shown), the “ED50 -(NOR)” value falls from 5 mg/kg to 1.25 mg/kg (4-fold).
